Measurements taken from patent publication US20060287345A1, “Substituted 4-phenyl-4-[1h-imidazol-2-yl]-piperidine derivatives as selective non-peptide delta opiod agonists with antidepressant and anxiolytic activity” (priority 2003, published 2006).

Target: cloned human δ opioid receptor (Homo sapiens, UniProt P41143)
Test: Radioligand binding, competitive inhibition of [3H]DPDPE
Conditions: Table 7

| Compound | pIC50 values for the delta opioid receptor agonist test |
| --- | --- |
| CS(=O)(=O)N1CCC(c2ccccc2)(c2nccn2Cc2ccccc2)CC1 | 7.4 |
| S=C(Nc1ccccc1)N1CCC(c2ccccc2)(c2nccn2Cc2ccccc2)CC1 | 7.4 |
| O=[N+]([O-])C=C(Nc1ccccc1)N1CCC(c2ccccc2)(c2nccn2Cc2ccccc2)CC1 | 7.5 |
